Paper PMC7613929 (Nature microbiology, 2022)

B1: E. coli FtsN cytoplasmic tail peptide, residues 1-32 (EcFtsN^1-32) [E. coli] / E. coli FtsA (EcFtsA), full length [E. coli] (parent complex)
chain 1: MAQRDYVRRSQPAPSRRKKSTSRKKQRNLPAV
chain 2: MIKATDRKLVVGLEIGTAKVAALVGEVLPDGMVNIIGVGSCPSRGMDKGGVNDLESVVKCVQRAIDQAELMADCQISSVYLALSGKHISCQNEIGMVPISEEEVTQEDVENVVHTAKSVRVRDEHRVLHVIPQEYAIDYQEGIKNPVGLSGVRMQAKVHLITCHNDMAKNIVKAVERCGLKVDQLIFAGLASSYSVLTEDERELGVCVVDIGGGTMDIAVYTGGALRHTKVIPYAGNVVTSDIAYAFGTPPSDAEAIKVRHGCALGSIVGKDESVEVPSVGGRPPRSLQRQTLAEVIEPRYTELLNLVNEEILQLQEKLRQQGVKHHLAAGIVLTGGAAQIEGLAACAQRVFHTQVRIGAPLNITGLTDYAQEPYYSTAVGLLHYGKESHLNGEAEVEKRVTASVGSWIKRLNSWLRKEF

Variants of: B1
Assay: SPR; FtsA immobilised on CM5 chip via amide coupling; peptide 1:2 dilution series from 20 μM

| Variant | Kd [µM] |
| --- | --- |
| chain 1 MAQRDYVAASQPAPSRRKKSTSRKKQRNLPAV [chain 1 R8A, chain 1 R9A] | 11.6 |
